Assay results: patent publication US12448425B2, “Therapeutic peptides” (Board of Regents, The University of Texas System, priority 2019, dated 2025)

Target: T1, EphB4 (Homo sapiens, UniProt P54760)
T1 construct: purchased R&D Systems
T1 sequence (P54760 16-987): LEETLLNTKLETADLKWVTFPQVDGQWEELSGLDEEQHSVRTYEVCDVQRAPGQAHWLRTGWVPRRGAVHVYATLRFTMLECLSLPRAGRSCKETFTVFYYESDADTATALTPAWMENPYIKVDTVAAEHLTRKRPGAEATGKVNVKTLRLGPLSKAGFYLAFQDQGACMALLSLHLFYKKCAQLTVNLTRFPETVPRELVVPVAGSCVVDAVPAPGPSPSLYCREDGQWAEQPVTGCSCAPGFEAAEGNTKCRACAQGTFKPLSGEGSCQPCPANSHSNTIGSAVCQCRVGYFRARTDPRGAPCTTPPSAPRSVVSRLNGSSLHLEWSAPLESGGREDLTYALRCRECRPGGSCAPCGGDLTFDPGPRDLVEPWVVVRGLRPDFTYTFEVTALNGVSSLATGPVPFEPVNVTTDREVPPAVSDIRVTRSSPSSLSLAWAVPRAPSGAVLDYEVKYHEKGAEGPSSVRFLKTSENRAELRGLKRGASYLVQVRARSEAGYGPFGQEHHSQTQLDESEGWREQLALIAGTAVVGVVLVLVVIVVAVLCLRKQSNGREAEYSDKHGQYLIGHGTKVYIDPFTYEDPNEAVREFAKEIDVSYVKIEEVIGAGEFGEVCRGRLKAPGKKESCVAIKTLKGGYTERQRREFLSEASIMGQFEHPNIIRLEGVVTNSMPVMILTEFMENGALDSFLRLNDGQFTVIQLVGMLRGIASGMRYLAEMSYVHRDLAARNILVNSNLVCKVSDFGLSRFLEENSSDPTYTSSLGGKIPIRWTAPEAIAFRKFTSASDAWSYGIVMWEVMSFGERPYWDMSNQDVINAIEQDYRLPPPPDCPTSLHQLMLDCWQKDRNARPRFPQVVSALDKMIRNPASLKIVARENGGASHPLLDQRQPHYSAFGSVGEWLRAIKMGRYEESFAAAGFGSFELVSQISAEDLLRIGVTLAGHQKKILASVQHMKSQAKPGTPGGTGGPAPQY
Assay: SPR binding of peptides to immobilized EphB4
Settings: SPR sensorgrams
Description: Surface plasmon resonance (SPR) binding and competition assays. A stock solution of EphB4 in PBS (100 μg/mL) was diluted to 25 μg/mL with 10 mM sodium acetate buffer (pH 4.5) and immobilized to CM5 sensor chips using the amine coupling reaction according to manufacturer-provided procedures (BIACore). Briefly, the surfaces of the chips in flow cells (FC)-1 and FC-2 were activated by exposing chips to a mixture of 200 mM N-ethyl-N′-dimethylaminopropyl carbodiimide and 50 mM N-hydroxysuccinimide for 7 min. FC-1 was used as a reference surface and was directly deactivated by injecting 1 M ethanolamine at pH 8.5 for 7 min. FC-2 was injected with 25 μg/mL human or murine EphB4 followed by injection of 1 M ethanolamine to block the remaining activated ester groups on the surface. The chips were allowed to stabilize for at least 2 h in HBSEP running buffer before injection of test analytes.
Binding assays were performed in duplicate at 25° C. in HBSEP running buffer. […] Thus, all analyzed samples, including a sample of the running buffer, were additionally injected onto an uncoated reference surface. The association rate (Kon) and dissociation rate (Kog) were calculated by fitting binding chromatogram data using the BIACore evaluation software with a 1:1 Langmuir binding model. The binding constant KD was calculated as Koff/Kon. […]

“CCPM-BIDEN-AP: nano-conjugate of Cys-BIDEN-AP on core-crosslinked polymeric micelles via maleimide (GMBS) (CTNYLFSPNGPIARAW; D-residues)” was tested, and the “binding affinity to EphB4 (in words)” value was “retained the binding affinity to EphB4”.
